Among the data in US9796710B2, “Dihydropyrrolopyridine inhibitors of ROR-gamma” (Vitae Pharmaceuticals, Inc., priority 2014, dated 2017) are Ki values, retold here.

By UniProt entry, the sequences of proteins in these tests, tags left out. Residues count along the entry.
UniProt P51449, 269-508: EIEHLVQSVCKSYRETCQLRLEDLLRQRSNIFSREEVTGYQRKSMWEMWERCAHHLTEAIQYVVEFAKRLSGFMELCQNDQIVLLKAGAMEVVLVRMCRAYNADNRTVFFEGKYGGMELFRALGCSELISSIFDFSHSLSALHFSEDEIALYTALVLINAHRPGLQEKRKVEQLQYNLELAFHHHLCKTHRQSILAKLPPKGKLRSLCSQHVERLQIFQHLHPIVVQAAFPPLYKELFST

For the experiment, the target named is recombinant RORγ Ligand Binding Domain (LBD) protein (Homo sapiens (Human), UniProt P51449). In words: Radio-Ligand RORγ Binding Assay (Assay 1). Particulars: cell-free competition with 25-hydroxy [26,27-3H]-cholesterol; read-out: RORγ Binding Ki Range* (nM) (Assay 1).

For `CC[C@H]1c2ncc(C(=O)N[C@@H](CO)c3ccc(S(=O)(=O)CC)cn3)cc2CN1C[C@@H]1CC[C@@H](C(F)(F)F)OC1` (single isomer, unassigned) [Compound 6], the Ki (commonly a measure of affinity in units of concentration, obtained from inhibition or displacement) fell in the range of 100 to 1000 nM.
